ClpP mod – qHTS Assay for Activators of ClpP. purified B. subtilis ClpP, FRET peptide cleavage, 20 min. Potency, µM (series often up to 57.5 µM). 340,000 compounds, 1.9% hits. AID 651965, 2013; active = well fitted falling curve with a large enough effect; inconclusive = small, poorly fitted or top-dose-only effect; inactive = no such curve, though single readings can be large or run the other way; note: the source files actives as falling curves though it sought activators and does not explain the sign; nearly all actives have a fitted effect of over 65% in size
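Buffer: 100 mM Tris/HCl pH8, 100 mM KCl, 0.05% low protease BSA, 2.5% glycerol, 0.01% Tween-20. ClpP 10 microg/mL final; 20 min RT; delta FRET normalized to ADEP and DMSO controls.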
TCR activator – activators of T cell receptors | primary human leukocytes, anti-CD3, IL-2 HTRF, 48 h | Potency, µM (highest dose often 9.22 µM), usual class: activators | 330,000 tested, under 10 active
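1) Mix primary human leukocytes, a-CD3 beads and compound. 2) Incubate 48 hr. 3) Add HTRF IL-2 reagents (a-IL-2-K, a-IL-2-d2).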
Nrf2 block – blocks Nrf2 signaling; A549 ARE-Fluc reporter, luciferase luminescence, 18-24 h; Potency, µM (top dose mostly 46 µM), most hits filed as inhibitors; 360,000 compounds, 2.1% hits; note: nearly all actives have a fitted effect of over 60% in size
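Quantitative HTS in A549 cells stably bearing an antioxidant response element-firefly luciferase construct. Inhibition of Nrf2-driven transcription was scored by luminescence after 18-24 h of compound exposure at 37 °C.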
miR-21 reporter – raises the signal of a miR-21 reporter | HeLa miR-21 FLuc reporter, luciferase, 48 h | Potency, µM (doses to about 38.3 µM) | 340,000 tested, under 10 active | AID 2288; active = well fitted rising curve with a large enough effect; inconclusive = small, poorly fitted or top-dose-only effect; inactive = no such curve, though single readings can be large or run the other way;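 note: miR-21 action dims this reporter so a rising signal means less miR-21 action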
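HeLa miR-21-FLuc reporter line, endogenous miR-21; 2000 cells/well in DMEM/10% FBS; compound titration up to ~40uM final, 48 h, 37 degree Celsius; luciferase detection reagent, 15 min lysis, CCD luminescence.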
Nrf2 activator – activates Nrf2 signaling; AREc32 ARE-luciferase reporter (MCF7-derived line), luminescence, 24 h; Potency, µM (highest dose often 46.1 µM), actives largely listed as activators; 410,000 compounds, 0.31% hits; AID 624171; note: nearly all actives have a fitted effect of over 65% in size
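AREc32 cells carrying an ARE-driven firefly luciferase reporter were seeded at 1000 cells/well in OPTI-MEM with 5% FBS, then exposed to compound for 24 hr at 37 deg C. Luminescence was read with Steady-Glo after 30 min at RT.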
A549 tox – kills or reduces viability of A549 cells in Nrf2 counter-screen; AID 504648; Potency, µM (titrated, usually from 46 µM), hits mostly inhibitors; A549 ARE-Fluc cells, CellTiter-Fluor viability, 18-24 h; 390,000 compounds, 0.16% hits
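A549 ARE_Fluc cells in 5% FBS OPTI-MEM were exposed to compounds in concentration-response for 18-24 h at 37 deg C. Viability was read by CellTiter-Fluor fluorescence (Ex 405/Em 525) after 30 min, before the luciferase read.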
Numbers stand for hits; – = inactive; ? = inconclusive; · = no result given. Rows were chosen to be rich in hits. Some 3.7% of all compounds tested hit in one or more screens of this group. Unless noted, calls come from the whole dose curve; as a rule, active = well fitted curve in the direction sought with a large enough effect; inconclusive = small, poorly fitted or top-dose-only effect, or another doubt; inactive = no such curve, though single readings can be large; an effect the other way counts as inactive or inconclusive.

SMILES	ClpP mod	TCR activator	Nrf2 block	miR-21 reporter	Nrf2 activator	A549 tox
N#Cc1nc(NC2CCCC2)c2ncn(-c3cc(F)cc(F)c3)c2n1	·	·	–	·	·	–
Cc1ccc(NC(=O)Cn2c(=O)ccc3cc(S(=O)(=O)N4CCC(C)CC4)ccc32)cc1Cl	–	·	·	–	–	–
Cc1ccc(-c2cccc(NC(=O)C3C(C(=O)O)[C@@H]4C=C[C@H]3C4)c2)o1 (some centres undefined)	–	–	–	–	–	–
Cc1ccc(-c2ccccc2NC(=O)C2C3C=CC(C3)C2C(=O)O)o1 (centres undefined)	25µM	–	–	–	–	–
Nn1c(COc2ccccc2F)nnc1SCC(=O)NCC1CCCO1 (centres undefined)	–	·	·	·	–	·
CCSc1nc(-c2ccccc2)nc2c1CCCC2	·	–	?	–	–	–
CN(C)CCSc1nc(-c2ccccc2)nc2c1CCCC2	16µM	–	–	–	–	–
C(=C\c1ccnc2ccccc12)/c1ccc(N2CCN(c3ccc(/C=C/c4ccnc5ccccc45)cc3)CC2)cc1	–	·	·	·	·	·
O=C(N/N=C/c1c(Cl)cccc1Cl)c1ccccc1F	–	–	?	–	5µM	–
Cc1cc(C)n2nc(SCC(=O)N3CCCC3)nc2n1	–	–	?	·	–	–
Cc1cc(C)n2nc(SCC(=O)N3CCN(c4ccccc4)CC3)nc2n1	32µM	–	–	·	–	–
CSCCC(NS(=O)(=O)c1ccc2c(c1)oc(=O)n2C)C(=O)NCCc1ccc(C)cc1 (centres undefined)	–	·	·	–	–	–
Cc1cc(OCC(=O)N2CCC(c3nc4ccccc4s3)CC2)ccc1Cl	–	·	?	–	–	–
CCc1cc(C(=O)N2CCN(C(=O)c3ccco3)CC2)sc1C	28µM	–	–	·	–	–
CCS(=O)(=O)N1CCN(C(=O)c2ccco2)CC1	–	–	–	–	–	–
O=C(Cn1c(=O)n(CC2CCCO2)c(=O)c2ccccc21)Nc1cccc(Cl)c1 (centres undefined)	–	·	–	–	–	–
COc1cc2c(=O)n(CC3CCCO3)c(=O)n(CC(=O)Nc3cccc(Cl)c3)c2cc1OC (centres undefined)	32µM	–	·	–	–	–
COc1ccc(Br)cc1CNC(=O)c1cc2ccccn2n1	–	·	–	–	–	–
CN1CCN(C(=O)CCN2C(=O)/C(=C/c3cccc(Br)c3)SC2=S)CC1	·	–	?	–	?	–
CN1CCN(C(=O)CCCN2C(=O)/C(=C/c3cccc(Br)c3)SC2=S)CC1	·	–	?	–	13µM	?
O=C1/C(=C/c2cccc(Br)c2)SC(=S)N1CCC(=O)N(CCO)c1ccccc1	–	–	–	–	13µM	–
COc1cccc(NCc2nnc(SC(C(=O)N(C)C)c3ccccc3)n2C2CCCCC2)c1 (centres undefined)	–	·	·	·	·	·
CNC(=O)c1ccsc1NC(=O)c1ccc(S(=O)(=O)N2CCCc3ccccc32)cc1	–	–	18µM	–	–	–
O=C(Nc1nc2c(s1)CCCC2)c1ccc(S(=O)(=O)N2CCCc3ccccc32)cc1	–	–	18µM	–	–	–
COC(=O)Nc1ccc(S(=O)(=O)N2CCCc3ccccc32)cc1	–	–	–	–	–	–
SMILES	ClpP mod	TCR activator	Nrf2 block	miR-21 reporter	Nrf2 activator	A549 tox
CC1CCc2nc(NC(=O)c3ccc(S(=O)(=O)N4CCCc5ccccc54)cc3)sc2C1 (centres undefined)	–	–	5.2µM	–	–	–
O=C(Cc1cccc(F)c1)NO	–	·	·	·	·	·
O=c1[nH]c(=S)c2n[nH]nc2[nH]1	–	·	·	·	·	·
COc1ccc(N2CCN(C(=O)c3cc(-c4cc(OC)ccc4OC)nc4ccccc34)CC2)cc1	–	–	–	–	–	–
CCOc1ccccc1N1CCN(C(=O)c2cc(-c3cc(OC)ccc3OC)nc3ccccc23)CC1	–	–	21µM	–	–	–
COc1ccc(-c2cc(C(=O)N3CCN(c4ncccn4)CC3)c3ccccc3n2)c(OC)c1	?	–	–	–	–	–

Source: PubChem BioAssay (National Center for Advancing Translational Sciences (NCATS))
